Laboratory results from patent publication US9487512B2, “(Hetero)aryl cyclopropylamine compounds as LSD1 inhibitors” (ORYZON GENOMICS, S.A., priority 2011, dated 2016).

Tested on: THP-1 cells
Assay: cells
Type: cell-based
Details: Homo sapiens, THP-1, 96 h
Experimental: THP-1 were purchased from DSMZ GmbH (Deutsche Sammlung von Mikroorganismen und Zellkulturen) and cultured in RPMI 1640 medium containing 10% of fetal bovine serum.
Serial dilutions of the compounds were prepared in DMSO and then further diluted in complete medium to generate solutions of concentrations that are double of the final concentration at which the cells will be exposed. 1 ml of these 2× concentrated solutions was added to the cells.
Each treated sample was split in two. […] Samples were incubated in the dark at 4° C. for 30-60 minutes and washed three times in PBS buffer containing 1% fetal bovine serum.
EC50 values were calculated by non-linear regression analysis.

c1ccc(COc2ccc([C@@H]3C[C@H]3NC3CCNCC3)cc2)cc1 (relative stereo) [Example 4, N-((trans)-2-(4-(benzyloxy)phenyl)cyclopropyl)piperidin-4-amine hydrochloride]
EC50: 1.9 nM

Structures can show the parent of a compound that is named as a salt.
